This is an account of results in ChEMBL document CHEMBL1908105, “UDP-glucuronosyltransferases and clinical drug-drug interactions” (Pharmacol Ther, 2005).

Amino acid sequences for entries named in this document (tags omitted). Residues count along the entry.
UniProt P35503, 29-534 limits assumed: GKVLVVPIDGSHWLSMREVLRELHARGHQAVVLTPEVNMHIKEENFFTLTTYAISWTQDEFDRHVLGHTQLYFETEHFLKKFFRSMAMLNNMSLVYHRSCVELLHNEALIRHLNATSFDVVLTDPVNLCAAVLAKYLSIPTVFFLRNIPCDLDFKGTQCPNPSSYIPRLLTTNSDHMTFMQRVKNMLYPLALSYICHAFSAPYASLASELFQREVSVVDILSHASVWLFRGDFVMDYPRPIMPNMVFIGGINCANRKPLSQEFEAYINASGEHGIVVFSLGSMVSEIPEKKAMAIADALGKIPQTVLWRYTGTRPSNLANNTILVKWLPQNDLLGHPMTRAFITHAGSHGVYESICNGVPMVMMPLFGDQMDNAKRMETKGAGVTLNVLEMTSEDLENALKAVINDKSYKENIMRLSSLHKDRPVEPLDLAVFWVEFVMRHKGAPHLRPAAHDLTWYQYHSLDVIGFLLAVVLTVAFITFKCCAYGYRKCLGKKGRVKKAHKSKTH

Molecules are shown by their SMILES.

For the data set, the target named is UDP-glucuronosyltransferase 1A3 (Homo sapiens, UniProt P35503). The data set is described as follows: Drug glucuronidation reaction catalyzed by human recombinant UGT1A3.

Consider `CO[C@]12CC[C@@]3(C[C@@H]1[C@](C)(O)C(C)(C)C)[C@H]1Cc4ccc(O)c5c4[C@@]3(CCN1)[C@H]2O5`, for which the Km amounted to 19 µM and the Vmax (pmol/min/mg protein) was found to be 129.

Usually Km stands for the substrate concentration at which the rate is half of its maximum.
